# “Also recorded” adds a separate entry of the source.
# Amino acid sequences for entries named in this document (tags omitted). Residues count along the entry.
# UniProt P10275, 1-644 isoform P10275-3: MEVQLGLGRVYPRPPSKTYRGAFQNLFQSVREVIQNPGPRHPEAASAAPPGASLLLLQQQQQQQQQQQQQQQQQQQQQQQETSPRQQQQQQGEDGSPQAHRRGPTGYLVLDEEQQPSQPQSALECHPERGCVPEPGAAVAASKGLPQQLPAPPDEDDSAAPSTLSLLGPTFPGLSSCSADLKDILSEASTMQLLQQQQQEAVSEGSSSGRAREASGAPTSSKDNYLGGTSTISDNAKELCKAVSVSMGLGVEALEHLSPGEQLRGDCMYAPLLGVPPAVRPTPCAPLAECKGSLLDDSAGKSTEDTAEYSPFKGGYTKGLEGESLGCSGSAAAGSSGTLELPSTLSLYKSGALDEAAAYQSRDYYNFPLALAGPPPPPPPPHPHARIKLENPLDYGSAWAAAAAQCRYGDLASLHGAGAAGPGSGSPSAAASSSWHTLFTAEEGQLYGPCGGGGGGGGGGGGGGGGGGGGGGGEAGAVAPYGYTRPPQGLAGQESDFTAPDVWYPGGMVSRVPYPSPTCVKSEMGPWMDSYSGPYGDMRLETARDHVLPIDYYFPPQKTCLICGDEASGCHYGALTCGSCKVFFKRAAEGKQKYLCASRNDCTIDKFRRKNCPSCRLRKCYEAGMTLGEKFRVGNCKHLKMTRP
# UniProt P10275, whole entry T878A: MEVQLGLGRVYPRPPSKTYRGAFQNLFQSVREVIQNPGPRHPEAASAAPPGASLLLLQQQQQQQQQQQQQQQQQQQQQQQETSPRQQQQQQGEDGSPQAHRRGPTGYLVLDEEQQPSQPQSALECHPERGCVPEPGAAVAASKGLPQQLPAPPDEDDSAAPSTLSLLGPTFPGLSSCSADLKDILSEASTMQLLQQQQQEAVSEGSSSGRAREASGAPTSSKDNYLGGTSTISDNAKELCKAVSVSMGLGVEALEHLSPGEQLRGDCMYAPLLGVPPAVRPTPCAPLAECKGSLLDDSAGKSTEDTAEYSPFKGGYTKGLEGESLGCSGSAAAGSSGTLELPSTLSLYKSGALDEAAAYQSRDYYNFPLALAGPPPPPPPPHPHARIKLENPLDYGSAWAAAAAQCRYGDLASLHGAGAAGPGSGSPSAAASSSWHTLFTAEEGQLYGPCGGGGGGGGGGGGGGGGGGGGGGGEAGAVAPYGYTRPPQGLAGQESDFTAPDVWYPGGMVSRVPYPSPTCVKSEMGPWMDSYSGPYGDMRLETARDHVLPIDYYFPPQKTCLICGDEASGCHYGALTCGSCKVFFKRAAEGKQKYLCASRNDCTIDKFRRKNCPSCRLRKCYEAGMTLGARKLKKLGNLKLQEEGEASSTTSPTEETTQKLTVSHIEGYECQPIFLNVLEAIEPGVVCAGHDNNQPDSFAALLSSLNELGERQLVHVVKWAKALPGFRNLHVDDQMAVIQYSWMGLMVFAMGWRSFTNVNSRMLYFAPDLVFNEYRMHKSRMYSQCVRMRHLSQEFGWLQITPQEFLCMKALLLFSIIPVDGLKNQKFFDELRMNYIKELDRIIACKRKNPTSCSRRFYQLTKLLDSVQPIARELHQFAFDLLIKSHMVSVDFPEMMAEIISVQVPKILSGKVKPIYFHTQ
# Assays:
# [1] = molecular target: AR splice variant (AR SV) in 22RV1 cells (Homo sapiens, UniProt P10275)
# [2] = molecular target: AR wildtype (wt) (Homo sapiens, UniProt P10275)
# [3] = molecular target: AR full length (AR FL) in LNCaP cells (Homo sapiens, UniProt P10275, T878A)
compound,measurement,setting,value
"C[C@](O)(CNC(=O)c1cn[nH]c1)C(=O)Nc1ccc(C#N)c(C(F)(F)F)c1 [Compound 1076, (S)-N-(3-((4-Cyano-3-(trifluoromethyl)phenyl)amino)-2-hydroxy-2-methyloxopropyl)-1H-pyrazole-4-carboxamide]",SARD Activity S.V. (22RV1) % degradation at 10 μM,[1],60%
same,SARD activity: AR SV (AR-V7) degradation in words,[1],some SARD activity; also recorded: significant SARD activity
same,wtAR inhibitory activity / potency range in words,[2],agonist
same,SARD activity: AR FL degradation in words,[3],some SARD activity; also recorded: significant SARD activity

# Source: patent publication US20230146829A1 (priority 2020, published 2023)
